Results on 1 substance are retold here after publication PMC11241722.

Chains of the proteins cited; added tags and fusions are not shown. Residues count along the entry.
UniProt P23229, 24-1130, chain 1 of 2: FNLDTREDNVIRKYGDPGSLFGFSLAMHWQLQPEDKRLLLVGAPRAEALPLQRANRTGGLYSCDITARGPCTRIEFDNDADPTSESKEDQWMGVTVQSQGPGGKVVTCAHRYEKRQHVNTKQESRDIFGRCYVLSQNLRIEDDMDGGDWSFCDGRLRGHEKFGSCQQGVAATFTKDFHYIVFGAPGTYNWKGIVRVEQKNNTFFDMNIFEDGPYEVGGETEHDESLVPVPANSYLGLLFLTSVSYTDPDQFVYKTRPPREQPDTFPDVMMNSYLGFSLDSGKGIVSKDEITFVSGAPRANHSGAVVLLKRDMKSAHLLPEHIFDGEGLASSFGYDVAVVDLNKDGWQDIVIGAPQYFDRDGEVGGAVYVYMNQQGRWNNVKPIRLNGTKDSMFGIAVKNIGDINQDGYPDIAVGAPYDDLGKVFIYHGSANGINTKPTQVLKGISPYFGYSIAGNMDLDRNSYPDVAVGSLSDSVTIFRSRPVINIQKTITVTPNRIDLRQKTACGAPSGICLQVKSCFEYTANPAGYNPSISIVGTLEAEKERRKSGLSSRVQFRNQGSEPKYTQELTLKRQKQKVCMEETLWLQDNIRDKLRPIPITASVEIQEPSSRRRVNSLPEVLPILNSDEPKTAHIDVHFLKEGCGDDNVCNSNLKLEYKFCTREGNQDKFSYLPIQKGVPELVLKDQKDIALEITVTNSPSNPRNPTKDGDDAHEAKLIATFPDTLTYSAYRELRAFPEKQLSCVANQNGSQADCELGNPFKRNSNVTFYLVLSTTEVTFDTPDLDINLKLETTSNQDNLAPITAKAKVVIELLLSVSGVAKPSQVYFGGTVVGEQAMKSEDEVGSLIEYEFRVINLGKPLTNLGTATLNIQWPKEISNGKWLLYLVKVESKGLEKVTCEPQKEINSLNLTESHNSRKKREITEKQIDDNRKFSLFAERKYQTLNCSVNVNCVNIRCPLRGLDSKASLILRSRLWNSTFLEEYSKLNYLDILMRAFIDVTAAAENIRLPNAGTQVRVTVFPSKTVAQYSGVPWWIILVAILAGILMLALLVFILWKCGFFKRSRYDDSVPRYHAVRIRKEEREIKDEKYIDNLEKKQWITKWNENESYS

In this experiment the target is Recombinant Human Integrin α6β1 protein (Flag & His Tag) (human) (UniProt P23229). The experiment can be described thus: MST; 50 nM RED-tris-NTA-labelled His-tagged Integrin α6β1 mixed 1:1 (10 μL + 10 μL) with serially diluted unlabelled Netrin-1 (0.03 pM to 1.2 μM, 16 tubes); PBS with 0.05% Tween-20; 10 min at room temperature; Monolith NT.115; Kd fit model; three independent dilution series.

A word on the Kd: it is a measure of binding affinity in units of concentration. As for “Recombinant Human Netrin-1 protein (from UniProt O95631 25-604) (ligand)”, the Kd was found to be 19.9 µM.
